Experimental data: patent US8778951B2, “Heteroaryl compounds and their uses” (Novartis AG, priority 2009, dated 2014)

Protein sequences, listed by entry. Tags and fused reporters are not part of them.
UniProt P50750, whole entry: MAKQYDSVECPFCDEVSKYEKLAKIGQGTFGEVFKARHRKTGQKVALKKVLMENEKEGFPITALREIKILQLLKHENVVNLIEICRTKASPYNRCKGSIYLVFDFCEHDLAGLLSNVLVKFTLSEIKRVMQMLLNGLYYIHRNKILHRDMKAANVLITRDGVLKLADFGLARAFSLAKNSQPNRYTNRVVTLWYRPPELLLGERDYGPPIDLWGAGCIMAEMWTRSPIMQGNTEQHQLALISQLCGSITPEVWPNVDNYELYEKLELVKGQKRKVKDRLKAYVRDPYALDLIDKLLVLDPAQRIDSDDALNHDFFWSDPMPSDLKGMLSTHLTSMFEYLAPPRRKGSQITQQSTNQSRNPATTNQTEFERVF

Target: Cdk9/cyclinT1 (Homo sapiens (Human), UniProt P50750)
Assay: Cdk9/CyclinT1 IMAP Protocol (fluorescence polarization kinase assay)
Type: biochemical
Conditions: Table 2; generated using one of the two Cdk9/cyclinT1 assays (IMAP or Alpha Screen), not specified which; unit inferred
Experimental: Cdk9/CyclinT1 IMAP Protocol
The biological activity of the compounds of the invention can be determined using the assay described below.
Cdk9/cyclinT1 is purchased from Millipore, cat #14-685. The final total protein concentration in the assay 4 nM. […] The final concentration of peptide substrate is 100 nM. The ATP substrate (Adenosine-5′-triphosphate) is purchased from Roche Diagnostics, cat#1140965. The final concentration of ATP substrate is 6 uM. IMAP (Immobilized Metal Assay for Phosphochemicals) Progressive Binding reagent is purchased from Molecular Devices, cat#R8139. Fluorescence polarization (FP) is used for detection. The 5TAMRA-cdk7tide peptide is phosphorylated by Cdk9/cyclinT1 kinase using the ATP substrate. The Phospho-5TAMRA-cdk7tide peptide substrate is bound to the IMAP Progressive Binding Reagent. The binding of the IMAP Progressive Binding Reagent changes the fluorescence polarization of the 5TAMRA-cdk7tide peptide which is measured at an excitation of 531 nm and FP emission of 595 nm. Assays are carried out in 100 mM Tris, pH=7.2, mM MgCl2, 0.05% NaN3, 0.01% Tween-20, 1 mM dithiothreitol and 2.5% dimethyl sulfoxide. IMAP Progressive Binding Reagent is diluted 1:800 in 100% 1× Solution A from Molecular Devices, cat#R7285.
General protocol is as follows: To 10 ul of cdk9/cyclinT1, 0.5 ul of test compound in dimethyl sulfoxide is added. 5TAMRA-cdk7tide and ATP are mixed. 10 ul of the 5TAMRA-cdk7tide/ATP mix is added to start the reaction. The reaction is allowed to proceed for 4.5 hrs. 60 uL of IMAP Progressive Binding Reagent is added. After >1 hr of incubation, plates are read on the Envision 2101 from Perkin-Elmer. The assay is run in a 384-well format using black Corning plates, cat#3573.

IC50 | SMILES
277 nM | O[C@H]1CC[C@H](Nc2cc(-c3nc(NCC4CCOCC4)ccc3Cl)c(Cl)cn2)CC1 [Compound 296]
0.16 nM | N#CC1(CNc2nc(-c3cc(N[C@H]4CC[C@H](O)CC4)ncc3Cl)ccc2F)CCOCC1 [Compound 357, 4-((5′-chloro-5-fluoro-2′-((1r,4r)-4-hydroxycyclohexylamino)-2,4′-bipyridin-6-ylamino)methyl)tetrahydro-2H-pyran-4-carbonitrile]
0.36 nM | N#CC1(CNc2cccc(-c3cc(N[C@H]4CC[C@H](NCCOC(F)(F)F)CC4)ncc3Cl)n2)CCOCC1 [Compound 362, 4-((5′-chloro-2′-((1r,4r)-4-(2-(trifluoromethoxy)ethylamino)cyclohexylamino)-2,4′-bipyridin-6-ylamino)methyl)tetrahydro-2H-pyran-4-carbonitrile]
0.63 nM | COCCN[C@H]1CC[C@H](Nc2cc(-c3cccc(NCC4(F)CCOCC4)n3)c(Cl)cn2)CC1 [Compound 364, 5′-chloro-N6-((4-fluorotetrahydro-2H-pyran-4-yl)methyl)-N2′-((1r,4r)-4-(2-methoxyethylamino)cyclohexyl)-2,4′-bipyridine-2′,6-diamine]

The remaining lines, values behind:

SMILES | IC50
N[C@H]1CC[C@H](Nc2cc(-c3nc(NCC4CCOCC4)ccc3F)c(Cl)cn2)CC1 [Compound 282, N2′-(trans-4-aminocyclohexyl)-5′-chloro-3-fluoro-N6-((tetrahydro-2H-pyran-4-yl)methyl)-2,4′-bipyridine-2′,6-diamine] | 7.94 nM
O=C(N[C@H]1CC[C@H](Nc2cc(-c3cccc(NC[C@@H]4CCCNC4)n3)c(Cl)cn2)CC1)OCc1ccccc1 [Compound 207] | 114 nM
O=C(N[C@H]1CC[C@H](Nc2cc(-c3cccc(NC[C@H]4CCCNC4)n3)c(Cl)cn2)CC1)OCc1ccccc1 [Compound 206] | 134 nM
O[C@H]1CC[C@H](Nc2cc(-c3cccc(NC[C@@H]4CCCO4)n3)c(Cl)cn2)CC1 [Compound 127] | 139 nM
N[C@H]1CC[C@H](Nc2cc(-c3cccc(NCC4CCS(=O)(=O)CC4)n3)c(Cl)cn2)CC1 [Compound 230, N-(4-Amino-cyclohexyl)-5′-chloro-N-(1,1-dioxo-hexahydro-1-thiopyran-4-yl-methyl)-[2,4′]bipyridinyl-6,2′-diamine] | 7.95 nM
